Amino acid sequences for entries named in this document (tags omitted). Residues count along the entry.
UniProt P37231, 238-503 limits assumed: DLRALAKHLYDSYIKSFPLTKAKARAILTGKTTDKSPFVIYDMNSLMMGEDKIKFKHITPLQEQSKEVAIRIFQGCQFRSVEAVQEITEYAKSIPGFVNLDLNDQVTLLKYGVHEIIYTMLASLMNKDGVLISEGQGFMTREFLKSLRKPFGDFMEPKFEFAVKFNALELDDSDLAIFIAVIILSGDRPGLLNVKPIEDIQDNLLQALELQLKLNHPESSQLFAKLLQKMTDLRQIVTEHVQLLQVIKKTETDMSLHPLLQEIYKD

According to patent US8461183B2, “PPAR agonist compounds, preparation and uses” (Genfit, priority 2008, dated 2013):

Experiments:
hPPARδ = target: T1, hPPARδ (Homo sapiens, UniProt Q03181); assay: Gal4-hPPARδ chimera transactivation (luciferase) in COS-7 cells; assay type: cell-based; conditions: relative to maximum activation obtained with GW501516, 24 hours
T1 construct: corresponding to the DEF domains (structural elements of the promoter of the PPARs: D=hinge, EF=ligand fixation domain and AF2 fixation site); expressed in transfected cells; host or cells: COS-7 (monkey kidney fibroblasts)
T1 sequence (Q03181 211-439 limits assumed): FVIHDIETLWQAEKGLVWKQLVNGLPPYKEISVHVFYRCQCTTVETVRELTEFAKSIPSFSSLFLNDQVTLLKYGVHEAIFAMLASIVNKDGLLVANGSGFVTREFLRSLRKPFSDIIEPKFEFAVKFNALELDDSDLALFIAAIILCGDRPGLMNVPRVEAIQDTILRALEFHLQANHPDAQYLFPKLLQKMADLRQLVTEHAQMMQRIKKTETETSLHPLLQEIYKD
Protocol: (§1) Activation of PPARs is evaluated in vitro on a line of monkey kidney fibroblasts (COS-7) by measuring the transcriptional activity of chimeras consisting of the DNA binding domain of Gal4 transcription factor of yeast and of the ligand binding domain of the various PPARs of human origin (hPPAR). The compounds are tested at doses between 0.01 and 100 μM on chimeras Gal4-PPARα, γ, δ and EC50 is determined.
(§2) The COS-7 cells are from ATCC and are cultivated in DMEM medium supplemented with 10% (vol/vol) of fetal calf serum, 1% of penicillin/streptomycin (Biochrom, AG), 1% of amino acids (Gibco) and 1% of sodium pyruvate (Gibco). The cells are incubated at 37° C. in a humid atmosphere containing 5% CO2.
(§3) The plasmids Gal4(RE)_TkpGL3, pGal4-hPPARα, pGal4-hPPARγ, pGal4-hPPARδ and pGal4-φ are described in the literature (Raspe E et al., 1999). […]
(§4) The adherent COS-7 cells are transfected with 40 μg of DNA per 225 cm^2 flask, with a pGal4-hPPAR/Gal4(RE)_TkpGL3 ratio of 1/10, in the presence of 10% of fetal calf serum. […] At the end of the experiment, the cells are lysed and the luciferase activity is determined using the Steady-Lite™ HTS (Perkin Elmer) according to the supplier's recommendations.
(§5) The test data are summarized in Table 8-1 below, which presents, for each compound, the values of maximum activation (TOP %) and the EC50 values measured for each isoform of PPAR. […]

hPPARγ = target: T2, hPPARγ (Homo sapiens, UniProt P37231); assay: Gal4-hPPARγ chimera transactivation (luciferase) in COS-7 cells; assay type: cell-based; conditions: relative to maximum activation obtained with rosiglitazone, 24 hours
T2 construct: corresponding to the DEF domains (structural elements of the promoter of the PPARs: D=hinge, EF=ligand fixation domain and AF2 fixation site); expressed in transfected cells; host or cells: COS-7 (monkey kidney fibroblasts)
Protocol: as §1, §2, §3, §4, §5

Substance: 2-(4-(((2-methoxy-6-furylpyridin-3-yl)methyl)amino)phenylthio)ethanoic acid [Cpd 30]
- PPARδ TOP % (maximum activation) (hPPARδ): 1.13%
- PPARγ TOP % (maximum activation) (hPPARγ): 7.28%
